# Apparent affinities of Ab-14 variants for a coronavirus HR2 peptide

Target peptide (SARS-CoV-2 spike, HR2 region): PDVDLGDISGINAS

Parent: Ab-14, a human scFv built as VH, a 15-residue (Gly4Ser)3 linker, VL. Only the CDRs of the light chain vary.
VH: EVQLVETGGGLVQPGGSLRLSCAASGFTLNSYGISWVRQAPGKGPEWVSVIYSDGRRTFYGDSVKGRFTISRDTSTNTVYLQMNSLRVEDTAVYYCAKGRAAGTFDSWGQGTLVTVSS
VL: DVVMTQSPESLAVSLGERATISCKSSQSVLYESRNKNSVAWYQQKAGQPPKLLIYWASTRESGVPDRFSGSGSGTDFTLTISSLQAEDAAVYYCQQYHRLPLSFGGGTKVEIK

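Designed CDR sequences, proposed from the first random library and measured here. Several design methods are mixed in this list. The scFvs were displayed on barcoded MATa yeast, the peptide on MATalpha yeast. The frequency of each diploid, read from paired DNA barcodes, reflects how well the two displayed proteins bind. Scores were corrected for input abundance and mapped to Kd with protein pairs of known affinity run in the same pool. Mating was done six times.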

Positions count from residue 1 of the parent VL; S25M puts M in place of S. This list holds designs with at most six substitutions. The read-out is the apparent dissociation constant on a log10 scale (nM): the lower, the stronger. Replicates are averaged; those with no signal do not enter the mean. Where no diploid with the target was found in any replicate, the entry reads "nd": below detection, most likely a poor binder, though not proof of it. Empty control strains, which show no peptide, gave a signal in 4% of pairings with all light chain designs; the median was 2.64 and 95% of these signals were weaker than 1.59. No background was subtracted. For each scFv, signals with the empty controls are counted beside the result. Of ten entries with the parent sequence, four were seen in most replicates (averages 0.34 to 2.37), three in one and three in none, so single entries are noisy. The range of this assay differs from that of the first round, and the authors advise against merging the two. In the paper, a design with two or fewer of six values counts as a poor binder.

S25M/S38N/W56D: -0.05 (6 of 6 replicates; controls 0 of 18).
S25L/S26R/V29T/L30R/W56N/E61L: 0.47 (6 of 6 replicates; controls 0 of 18).
S25V/Q27D/Y31L/N35T/W56N: 0.72 (6 of 6 replicates; controls 1 of 18).
L30E/Y31M/K36S/W56D/T59Q: 0.43 (6 of 6 replicates; controls 1 of 18).
S25L/S26P/V29T/W56N/S62E: -0.19 (6 of 6 replicates; controls 0 of 18).
S25L/N37W/W56N/T59Q: -0.43 (6 of 6 replicates; controls 1 of 18).
S25C/S28Y/L30D/Y31R/S62V: 1.30 (6 of 6 replicates; controls 0 of 18).
S25F/N35T/W56N/Q96G: 0.35 (6 of 6 replicates; controls 3 of 18).
Y31A/H98M/P101T: nd (0 of 6 replicates; controls 0 of 18).
S25W/S26P/W56H/S62D/Q96S: 0.42 (6 of 6 replicates; controls 0 of 18).
S25V/V29H/L30D/W56D: -0.22 (6 of 6 replicates; controls 1 of 18).
W56G/E61V/R99H: 1.35 (6 of 6 replicates; controls 2 of 18).
K24H/R34N/N35S/W56H/S103C: 0.68 (6 of 6 replicates; controls 0 of 18).
E32G/S33D/N35P/S103K: 2.22 (3 of 6 replicates; controls 1 of 18).
S25L/E32Q/S38N/W56N: -0.22 (6 of 6 replicates; controls 1 of 18).
S25V/N35T/W56N/Y97E: 2.60 (6 of 6 replicates; controls 1 of 18).
W56Y/S58V: nd (0 of 6 replicates; controls 0 of 18).
R34G/W56D: 0.20 (6 of 6 replicates; controls 3 of 18).
S25V/Q27F/V29W/W56E: -0.22 (6 of 6 replicates; controls 0 of 18).
W56Q/E61S/Y97H: 2.56 (4 of 6 replicates; controls 0 of 18).
E32D/N35K/E61V: 2.66 (5 of 6 replicates; controls 1 of 18).
S26Q/K36Q/S38N/W56H/S62D: -0.06 (6 of 6 replicates; controls 2 of 18).
S25Q/S33M/W56D: -0.15 (6 of 6 replicates; controls 0 of 18).
Q27I/V29D/R34V/W56A: -0.24 (6 of 6 replicates; controls 0 of 18).
S25I/V29P/R34V/W56D: 0.19 (6 of 6 replicates; controls 1 of 18).
S25M/Y31D/W56E/H98S: -0.19 (6 of 6 replicates; controls 2 of 18).
S33L/R34G/W56E: 0.97 (6 of 6 replicates; controls 0 of 18).
S25L/Q27G/Y31M/W56S/S58D/E61L: 0.49 (6 of 6 replicates; controls 3 of 18).
S25L/S26Q/V29M/K36V/W56D: -0.30 (6 of 6 replicates; controls 3 of 18).
K24I/S25V/V29M/Y31G/W56N/S62N: -0.11 (6 of 6 replicates; controls 1 of 18).
S25C/S28A/L30T/R60P/Q95D/S103E: nd (0 of 6 replicates; controls 1 of 18).
S25L/V29Y/L30P/W56N: -0.02 (6 of 6 replicates; controls 0 of 18).
S25I/S26R/R34A/K36A/R99D: nd (0 of 6 replicates; controls 0 of 18).
V29F/L30H/W56G: -0.05 (6 of 6 replicates; controls 1 of 18).
Y31H/E61I: nd (0 of 6 replicates; controls 0 of 18).
S25F/Q27N/Y31V/Q95Y: 3.74 (2 of 6 replicates; controls 0 of 18).
S25L/V29W/W56N/E61M/S62E: -0.15 (6 of 6 replicates; controls 0 of 18).
S25L/N35Q/W56N/E61M/S62Q/S103L: -0.24 (6 of 6 replicates; controls 0 of 18).
S25L/S26Q/V29E/W56N/E61C/S62D: 0.03 (6 of 6 replicates; controls 0 of 18).
S25L/S26N/V29T/K36Q: 0.55 (6 of 6 replicates; controls 0 of 18).

For reference, 3 entries of the list once more:

{"changes": "S25V/N35T/W56N/Y97E", "mean, log10 nM": "2.60", "seen in": "6/6", "empty controls": "1/18"}
{"changes": "S25M/Y31D/W56E/H98S", "mean, log10 nM": "-0.19", "seen in": "6/6", "empty controls": "2/18"}
{"changes": "S25L/S26Q/V29M/K36V/W56D", "mean, log10 nM": "-0.30", "seen in": "6/6", "empty controls": "3/18"}

Reference: Li et al. 2023, doi:10.1038/s41467-023-39022-2. File: FLAb, binding data.